# From EP4549424A1, “NEW LITHIUM EXTRACTING AGENT AND LIQUID ORGANIC MIXTURE THEREOF, AND METHOD FOR EXTRACTING LITHIUM BY MEANS OF EXTRACTION” (Beijing Salt Lake Technology Development Company Limited, priority 2022, dated 2024)
# Assays:
# [1] = Liquid-liquid extraction from aqueous lithium-containing solution, ICP detection: lithium; settings: feed B1 (cLi 0.807, cNa 56.12 g/L, pH 11.48); organic phase and phase ratio per example;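 also: component concentrations in the aqueous phase were measured by inductively coupled plasma optical emission spectrometry after shaking and phase separation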
# [2] = Liquid-liquid extraction from aqueous lithium-containing solution, ICP detection: sodium; settings: feed B1 (cLi 0.807, cNa 56.12 g/L, pH 11.48); organic phase and phase ratio per example;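 also: sodium measured by inductively coupled plasma optical emission spectrometry in the diluted aqueous phase left after shaking with the organic phase and phase separation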
substance,measurement,setting,value
2-hydroxy-2-phenylacetophenone [Example 41],"cLi, remaining aqueous phase R1",[1],0.248 g/L
same,"cNa, remaining aqueous phase R1",[2],49.50 g/L
